We go through one substance from patent US9133208B2, “Radiolabelled rotenone derivatives and their use in SPECT imaging” (priority 2011, dated 2015).

The assay deals with rabbit hearts. Nature of the assay: Myocardial distribution in isolated retrograde perfused (Langendorff) rabbit heart. Also on record: species or system New Zealand White rabbits. The following applies: flow rate 1.7 ml/min/g LV, FIG. 9, qualitative. As for the experimental part:
Preparation of retrograde perfusion (Langendorff) was performed as previously described (R. C. Marshall, P. Powers-Risius, B. W. Reutter, S. E. Taylor, H. F. VanBrocklin, R. H. Huesman, T. F. Budinger J Nucl Med. 2001; 42:272-281, which is incorporated by reference herein) using hearts from 1.5-2.5 kg male New Zealand White rabbits (Charles River, Wilmington Mass.). Following an injection of heparin (5 mg/kg) and median sternotomy, hearts were excised keeping the ascending aorta and aortic branches, lungs and thymus intact. The hearts were immediately placed into an ice-cold bath containing modified Tyrode's solution ([…], 1 mM MgCl2, 28 mM NaHCO3, 0.44 mM NaH2PO4, 2.5 mM CaCl2, 6 mM KCl, 5 mM glucose, […] with 22 g/L BSA and aerated with 95% O2/5% CO2) and thymus and fatty tissue were quickly removed. The hearts were then suspended on an aortic cannula and perfused with pre-warmed modified Tyrode's buffer through a water jacketed, temperature regulated Langendorff perfusion system (Radnotti, Calif., USA) at a constant flow rate. […]
Following final preparation, the left ventricular balloon was inflated to achieve an end-diastolic pressure of approximately 8-10 mmHg with a constant systolic pressure held between 60-80 mm Hg. […] Perfusion and ventricular pressures were monitored throughout the experiment using a BioPac data acquisition system (BioPac, Montreal QC). […]

With “^131I-albumin: reference tracer, non-diffusable tracer that remains in the intravascular space”, the “initial peak fractional venous appearance rate” value was “higher venous effluent rate”.
